This list holds what a sample rich in hits left over.
Key:
[1] = tested on: HSkMC (human skeletal muscle cells); assay: cytotoxicity call (relative viability < 0.9); details: 10 µM
[2] = tested on: HepG2; assay: cytotoxicity call (relative viability < 0.9); details: 10 µM
[3] = tested on: S. aureus RN4220; assay: growth inhibition call (relative growth <= 0.2); details: 50 µM

CC[C@H](C)[C@H](NC(=O)[C@H](CCC(=O)O)NC(=O)[C@H](CCC(=O)O)NC(=O)[C@H](Cc1ccccc1)NC(=O)[C@H](CC(=O)O)NC(=O)CNC(=O)[C@H](CC(N)=O)NC(=O)CNC(=O)CNC(=O)CNC(=O)CNC(=O)[C@@H]1CCCN1C(=O)[C@H](CCCNC(=N)N)NC(=O)[C@@H]1CCCN1C(=O)[C@H](N)Cc1ccccc1)C(=O)N1CCC[C@H]1C(=O)N[C@@H](CCC(=O)O)C(=O)N[C@@H](CCC(=O)O)C(=O)N[C@@H](Cc1ccc(O)cc1)C(=O)N[C@@H](CC(C)C)C(=O)O
inactive: cytotoxicity call [1] | cytotoxicity call [2] | growth inhibition call [3]

— the antibiotic and cytotoxicity screens of Wong et al. (2023)
